According to US12110286B2, “Benzimidazolone derived inhibitors of BCL6” (Cancer Research Technology Limited, priority 2017, dated 2024):

Molecular target: Trx-6×His-BCL6 (human BCL6 BTB domain covering amino-acid sequence 5-129) (Homo sapiens (Human), UniProt P41182)
Test: HTRF in vitro assay (BCL6 / BCOR-AF633 peptide)
Type: binding
Settings: further generated data; 1 nM Trx-6×His-BCL6, 300 nM BCOR-AF633 peptide, 0.5 nM anti-6×His-Terbium cryptate
Description: The % inhibition at each concentration was calculated by normalising FRET ratio to the appropriate high (DMSO with all reagents) and low (DMSO without BCL6) controls.

Cn1c(=O)n(CCC(C)(C)O)c2cc(Nc3nc(Cl)ncc3Cl)ccc21 [Example 1n, 5-[(2,5-dichloropyrimidin-4-yl)amino]-3-(3-hydroxy-3-methyl-butyl)-1-methyl-benzimidazol-2-one]
HTRF pIC50: 5.82

C[C@@H](O)CCn1c(=O)n(C)c2ccc(Nc3ccnc(Cl)c3C#N)cc21 [Example 10i]
HTRF pIC50: 5.81

Cn1c(=O)n(CCC(C)(C)O)c2cc(Nc3ncnc(Cl)c3C#N)ccc21 [Example 1p, 4-chloro-6-[[3-(3-hydroxy-3-methyl-butyl)-1-methyl-2-oxo-benzimidazol-5-yl]amino]-pyrimidine-5-carbonitrile]
HTRF pIC50: 5.56

C[C@H](O)CCn1c(=O)n(C)c2ccc(Nc3ccnc(Cl)c3C#N)cc21 [Example 10h]
HTRF pIC50: 5.32
